Reference: PubChem BioAssay AID1460 (National Center for Advancing Translational Sciences (NCATS), 2008)
The list shows a part of the results, in another mix than the full data. Records with an inconclusive call do not appear. Activity calls are given as the source filed them. Calls follow the shape of the dose curve; as a rule, active = well fitted inhibition curve with a large enough effect; inconclusive = small, poorly fitted or top-dose-only effect; inactive = flat fitted curve, though single readings scatter.

By UniProt entry, the sequences of proteins in these tests, tags left out. Residues count along the entry.
UniProt P10636, 561-689 P618L limits assumed: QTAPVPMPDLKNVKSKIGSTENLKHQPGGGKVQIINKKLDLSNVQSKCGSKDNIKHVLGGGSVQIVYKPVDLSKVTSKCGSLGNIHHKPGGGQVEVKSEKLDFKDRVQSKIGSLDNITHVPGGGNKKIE

target: Microtubule-associated protein tau (Homo sapiens) (UniProt P10636); test: qHTS for Inhibitors of Tau Fibril Formation, Thioflavin T Binding; conditions: recombinant tau K18 P301L (four-repeat tau fragment), heparin-induced fibrillization, ThT fluorescence; at 57.4 µM (top of the series); also: nearly all actives have a fitted effect of over 55% in size
% is scaled to controls: 0 for no effect and ±100 for the full control effect.

Row | SMILES | activity, negative = inhibition
1 | O=[N+]([O-])c1cc([N+](=O)[O-])c(-n2nnc3ccccc32)c([N+](=O)[O-])c1 | inactive: -5.41%
2 | CCCOc1ccc(NP(C)(=O)Oc2ccc(Cl)cc2)cc1 (stereo not given) | inactive: -12.1%
3 | CP(=O)(Nc1ccc(SC(F)(F)F)cc1)Oc1ccccc1 (stereo not given) | inactive: -3.6%
4 | COc1ccccc1OP(C)(=O)Nc1c(C)cccc1C (stereo not given) | inactive: -2.37%
5 | CN1CCCCC1COC(=O)C1(O)c2ccccc2CCc2ccccc21 (stereo not given) | inactive: -1.21%
6 | O=[N+]([O-])OCC(CO[N+](=O)[O-])(CO[N+](=O)[O-])CO[N+](=O)[O-] | inactive: -5.23%
7 | Cc1cc(C)cc(OP(C)(=O)Nc2ccc(C)cc2C)c1 (stereo not given) | inactive: -16.3%
8 | CCOC(=O)c1ccc(NP(C)(=O)Oc2cc(C)cc(C)c2)cc1 (stereo not given) | inactive: -13.3%
9 | Cc1cc(C)cc(OP(C)(=O)Nc2ccccn2)c1 (stereo not given) | inactive: -4.82%
10 | CP(=O)(Nc1cccc(Br)c1)Oc1ccccc1 (stereo not given) | inactive: -3.31%
11 | Cc1ccc(C)c(NP(C)(=O)Oc2ccccc2)c1 (stereo not given) | inactive: 4.21%
12 | CCN(CC)CCCOC(=O)C(O)(c1ccccc1)c1ccccc1 | inactive: 1.33%
13 | CC(C)(C)c1ccc(OP(C)(=O)Nc2ccc(SC(F)(F)F)cc2)cc1 (stereo not given) | inactive: -18.5%
14 | Cc1cccc(C)c1OP(C)(N)=O (stereo not given) | inactive: -5.89%
15 | COc1ccccc1OP(C)(=O)Nc1cc(Cl)ccc1C (stereo not given) | inactive: -12.4%
16 | COc1ccc(OP(C)(=O)Nc2cccc(F)c2)cc1 (stereo not given) | inactive: -11.8%
17 | Cc1cc(C)cc(OP(C)(N)=O)c1 (stereo not given) | inactive: -6.09%
18 | CCOC(=O)c1ccc(NP(C)(=O)Oc2ccccc2)cc1 (stereo not given) | inactive: -5.86%
19 | COc1ccccc1OP(C)(=O)Nc1ccc(C)cc1 (stereo not given) | inactive: -7.82%
20 | Cc1ccc(NP(C)(=O)Oc2ccccc2)c(C)c1 (stereo not given) | inactive: 3.84%
21 | COc1ccccc1OP(C)(=O)Nc1ccccc1 (stereo not given) | inactive: 0.0739%
22 | CP(=O)(Nc1ccccc1Br)Oc1ccccc1 (stereo not given) | inactive: -8.55%
23 | CP(=S)(Nn1cnnc1)Oc1ccccc1 (stereo not given) | inactive: -5.69%
24 | CP(=O)(NC(=O)Nc1ccccc1)Oc1ccccc1 (stereo not given) | inactive: -6.58%

Row | SMILES | activity, negative = inhibition
25 | Cc1cc(C)cc(OP(C)(=O)Nc2ccc(SC(F)(F)F)cc2)c1 (stereo not given) | inactive: -17.8%
26 | Cc1cccc(C)c1OP(C)(=O)Nc1ccc(SC(F)(F)F)cc1 (stereo not given) | inactive: -5.26%
27 | CP(=O)(Oc1ccccc1)OC(c1ccccc1)C(F)(F)F (stereo not given) | inactive: -1.56%
28 | CP(=O)(Nc1ccccn1)Oc1ccc(Cl)cc1 (stereo not given) | inactive: 0.777%
29 | CCOP(C)(=S)SCC(=O)NC(C)C(=O)O (stereo not given) | inactive: -7.3%
30 | CCOC(=O)c1ccc(NP(C)(=O)Oc2ccc(OC)cc2)cc1 (stereo not given) | inactive: -7.35%
31 | CP(=O)(Oc1ccccc1)N1CCOC1=O (stereo not given) | inactive: -6.34%
32 | CCc1ccc(OP(C)(=O)Nc2cccnc2)cc1 (stereo not given) | inactive: 0.123%
33 | COc1ccccc1OP(C)(=O)Nc1c(C)n(C)n(-c2ccccc2)c1=O (stereo not given) | inactive: -5.57%
34 | OCCSCCO | inactive: 1.87%
35 | O=C(OCCCN1CCCC1)C(O)(c1ccccc1)C1CCCCC1 (stereo not given) | inactive: -7.3%
36 | CCN(CC)CC(O)COC(=O)C(O)(c1ccccc1)C1CCCCC1 (stereo not given) | inactive: -10.6%
37 | COc1ccc(OP(C)(=O)Nc2ccc(Br)cc2)cc1 (stereo not given) | inactive: 2.98%
38 | CN(C)C(=O)c1c([N+](=O)[O-])cc([N+](=O)[O-])cc1[N+](=O)[O-] | inactive: -18.8%
39 | CP(=O)(Nc1ccc(Cl)cc1)Oc1ccc(F)cc1 (stereo not given) | inactive: -0.165%
40 | COc1ccccc1OP(C)(=O)Nc1ccccc1Br (stereo not given) | inactive: -4.61%
41 | CC(C)(C)c1ccc(OP(C)(=O)O)cc1 | inactive: 0.447%
42 | CP(=O)(OC12CC3CC(CC(C3)C1)C2)OC12CC3CC(CC(C3)C1)C2 | inactive: -15.4%
43 | CCOC(=O)c1ccc(NP(C)(=O)Oc2ccc(Cl)cc2)cc1 (stereo not given) | inactive: -6.1%
44 | COc1ccc(OP(C)(=O)Nc2ccccc2Br)cc1 (stereo not given) | inactive: -7.9%
45 | COc1ccccc1OP(C)(=O)Nc1ccc(C)c(C)c1 (stereo not given) | inactive: 2.48%
46 | Cc1cc(C)cc(OP(C)(=O)Nc2cccc(C(F)(F)F)c2)c1 (stereo not given) | inactive: -1.5%
47 | CP(=O)(Nc1ccc(Cl)cc1Cl)Oc1ccccc1 (stereo not given) | inactive: -2.03%
48 | CP(=O)(OCCOc1ccccc1)OCCOc1ccccc1 | inactive: -3.67%

Row | SMILES | activity, negative = inhibition
49 | CN(C)CCOC(=O)C(O)(c1ccccc1)C1CCCC1 (stereo not given) | inactive: -10.1%
50 | COc1ccc(OP(C)(=O)Nc2ccccn2)cc1 (stereo not given) | inactive: -8.76%
51 | CCc1ccc(OP(C)(=O)O)cc1 | inactive: -3.56%
52 | CP(=O)(Nc1ccccn1)Oc1ccccc1 (stereo not given) | inactive: 4.07%
53 | COc1ccccc1OP(C)(=O)Nc1ccc(C)cc1C (stereo not given) | inactive: -9.75%
54 | Cc1c(NP(C)(=O)Oc2ccc(C(C)C)cc2)c(=O)n(-c2ccccc2)n1C (stereo not given) | inactive: 1.44%
55 | CC(C)c1ccc(OP(C)(=O)Nc2ccc(SC(F)(F)F)cc2)cc1 (stereo not given) | inactive: -9.09%
56 | CP(=O)(Nc1ccccc1F)Oc1ccccc1 (stereo not given) | inactive: -1.38%
57 | O=C(OCCN1CCN(CCOCc2ccccc2)CC1)C(O)(c1ccccc1)c1ccccc1 | inactive: 1.66%
58 | COc1ccc(OP(C)(=O)Nc2ccc(SC(F)(F)F)cc2)cc1 (stereo not given) | inactive: -2%
59 | CCOC(=O)c1ccc(NP(C)(=O)Oc2ccc(F)cc2)cc1 (stereo not given) | inactive: 3.74%
60 | CCCCCOc1ccc(NP(C)(=O)Oc2ccc(Cl)cc2Cl)cc1 (stereo not given) | inactive: -12.1%
61 | CP(=O)(Nc1ccccc1)Oc1ccc(F)cc1 (stereo not given) | inactive: 0.468%
62 | CCN(CC)CCCOC(=O)C(O)(c1ccccc1)C1CCCCC1 (stereo not given) | inactive: 3.99%
63 | COc1ccc(NP(C)(=O)Oc2ccccc2OC)cc1 (stereo not given) | inactive: -1.58%
64 | CN(C)CCOC(=O)C(O)(c1ccccc1)C1CCCCC1 (stereo not given) | inactive: -5.3%
65 | COc1ccc(OP(C)(=O)Nc2cccc(Br)c2)cc1 (stereo not given) | inactive: -9.83%
66 | O=[N+]([O-])c1ccc(OP2(=O)COCCO2)cc1 (stereo not given) | inactive: -5.22%
67 | CCOP(C)(=S)SCC(=O)NC(C)(CC)C(=O)O (stereo not given) | inactive: -12.4%
68 | CP(=O)(Nc1ccc(SC(F)(F)F)cc1)Oc1ccc(F)cc1 (stereo not given) | inactive: 6.76%
69 | Cc1ccccc1NP(C)(=O)Nc1ccccc1C | inactive: 6.56%
70 | CP(=O)(Nc1ccc2c(c1)OCCO2)Oc1ccccc1 (stereo not given) | inactive: -3.66%
